Literature values in US6855735B2, “Ketamine treatment of restless legs syndrome” (Temple University of the Commonwealth System of Higher …, priority 2002, dated 2005).

Conditions: metabolite of ketamine; cited from earlier work

6-dihydro-norketamine
renal excretion: 90%
